{
  "source": "patent US5904915A",
  "about": "“Method of diagnosing pathological state of tumor cells using a diagnostic agent for glycometabolic function” (Nihon Medi-Physics Co., Ltd., priority 1996, dated 1999)",
  "key": {"LS180 cells [1]": {"system": "LS180 cells", "experimental": "After carrying out an experiment according to Experiment 1, cells were stripped off from the plate using 100 μl of 50% ethanol and the solution was centrifuged at 15000 rpm. A 25 μl aliquot of supernatant was subjected to analysis of metabolites by thin-layer chromatography (TLC). The eluent was acetonitrile/water=95/5, and the carrier was silica gel 60. The plate after development was cut at 5 mm intervals and assayed for radioisotope with a gammer counter. Total radioactivity of respective metabolites were calculated from the ratio of metabolites obtained in TLC."}, "LS180 cells [2]": {"system": "LS180 cells", "experimental": "Then, cells were washed three times with a cold PBS, lysed with 50% ethanol and the lysate was assayed for metabolites.", "remark": "listed apart in the source"}},
  "data": [
    {"smiles": "OC[C@H]1OC(O)[C@H]([18F])[C@@H](O)[C@@H]1O", "note": "(some centres unmarked) [FDG, 2-[F-18]fluorodeoxyglucose, reference compound]", "values": [
      {"measurement": "rate of metabolism of FDG to FDG-6P", "setting": "LS180 cells [1]", "result": "slow"},
      {"measurement": "production of FDG-6P on doubling glucose concentration in medium", "setting": "LS180 cells [2]", "result": "decreased"}
    ]}
  ]
}
